In patent US20250295763A1 (priority 2024, published 2025):

Legend:
[1] = background statement; cited from earlier work
[2] = mouse, in vivo

Substance | solubility in water [1] | Average body weight loss Post-dose 1 D 1 [2] | Average body weight loss Post-dose 1 D 2 [2] | Average body weight loss Post-dose 1 D 14 [2] | Average body weight loss Post-dose 2 D 15 [2] | Average body weight loss Post-dose 2 D 16 [2] | Average body weight loss Post-dose 2 D 21 [2]
QS-21 | especially soluble |  |  |  |  |  | 
Poly(I:C) [reference compound] |  | −4.287 | 1.634 | 9.773 | −5.203 | −2.131 | −0.204
